# Laboratory results taken from patent EP2468858B1.
# Biological target: FGF-21 receptor on differentiated 3T3-L1 fat cells (mouse)
# Experiment: cell-based or functional assay
substance,measurement,value
Exendin4-(GGGGS)3-FGF21 fusion protein expressed in yeast (Pichia pastoris),Glucose uptake CPM of 3T3-L1 fat cells at 0 nM protein (baseline),2130 CPM
same,Glucose uptake CPM of 3T3-L1 fat cells at 0.03 nM protein,2030 CPM
same,Glucose uptake CPM of 3T3-L1 fat cells at 0.15 nM protein,2240 CPM
same,Glucose uptake CPM of 3T3-L1 fat cells at 0.8 nM protein,2400 CPM
same,Glucose uptake CPM of 3T3-L1 fat cells at 4 nM protein,4330 CPM
same,Glucose uptake CPM of 3T3-L1 fat cells at 20 nM protein,5390 CPM
same,Glucose uptake CPM of 3T3-L1 fat cells at 100 nM protein,5510 CPM
Met-Exendin4-(GGGGS)3-FGF21 fusion protein expressed in E. coli,Glucose uptake CPM of 3T3-L1 fat cells at 0 nM protein (baseline),1850 CPM
same,Glucose uptake CPM of 3T3-L1 fat cells at 0.03 nM protein,1900 CPM
same,Glucose uptake CPM of 3T3-L1 fat cells at 0.15 nM protein,2210 CPM
same,Glucose uptake CPM of 3T3-L1 fat cells at 0.8 nM protein,2320 CPM
same,Glucose uptake CPM of 3T3-L1 fat cells at 4 nM protein,3840 CPM
same,Glucose uptake CPM of 3T3-L1 fat cells at 20 nM protein,4800 CPM
same,Glucose uptake CPM of 3T3-L1 fat cells at 100 nM protein,4880 CPM
